The numbers were not newly measured in US10736883B2, “Triazole furan compounds as agonists of the APJ receptor” (AMGEN INC., priority 2016, dated 2020), which cites them from elsewhere.

Chains of the proteins cited; added tags and fusions are not shown. Lines headed by an entry give the natural chain unless they say otherwise; changes in a name come on top.
UniProt P35414: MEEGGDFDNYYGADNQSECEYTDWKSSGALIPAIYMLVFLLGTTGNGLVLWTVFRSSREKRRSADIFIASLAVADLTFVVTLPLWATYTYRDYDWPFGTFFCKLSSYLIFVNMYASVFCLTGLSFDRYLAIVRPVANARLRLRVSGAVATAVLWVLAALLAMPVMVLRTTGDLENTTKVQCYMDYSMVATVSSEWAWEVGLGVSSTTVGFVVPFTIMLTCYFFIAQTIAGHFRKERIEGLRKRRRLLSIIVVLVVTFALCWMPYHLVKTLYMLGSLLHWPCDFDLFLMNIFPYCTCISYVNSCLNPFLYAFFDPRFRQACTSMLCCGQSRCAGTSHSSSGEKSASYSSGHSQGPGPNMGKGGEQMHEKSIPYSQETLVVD

Series [1] concerns the target T1, APJ receptor (Homo sapiens (Human), UniProt P35414). As to conditions: apelin-36, apelin-17 and apelin-13 compared; cited from earlier work.
In series [2] the target is T1, APJ receptor. The note with it: fold higher than apelin-36; cited from earlier work.

With Apelin-13, the “in vitro activity (relative potency)” value in series [1] is on record as “approximately equipotent”. Moreover, in series [2], the “in vitro affinity to the APJ receptor relative to apelin-36” value is listed as around 3.5 fold.
